Here are results for 1 substance from patent US20060142593A1, “Platinum compounds” (Sonus Pharmaceuticals, Inc., priority 2002, published 2006).

cisplatin tocopherol succinate: the solubility in acetone result (acetone) is “soluble”. The solubility in methanol entry (methanol) is “soluble”.
